The target of assay [1] is Aldo-keto reductase family 1 member B1 (Rattus norvegicus) (UniProt P07943). Put plainly: Inhibitory activity was measured against renal inner medulla aldose reductase.
Assay [2] concerns the target T1, Aldo-keto reductase family 1 member A1 (Rattus norvegicus, UniProt P51635).
T1 sequence (P51635 whole entry): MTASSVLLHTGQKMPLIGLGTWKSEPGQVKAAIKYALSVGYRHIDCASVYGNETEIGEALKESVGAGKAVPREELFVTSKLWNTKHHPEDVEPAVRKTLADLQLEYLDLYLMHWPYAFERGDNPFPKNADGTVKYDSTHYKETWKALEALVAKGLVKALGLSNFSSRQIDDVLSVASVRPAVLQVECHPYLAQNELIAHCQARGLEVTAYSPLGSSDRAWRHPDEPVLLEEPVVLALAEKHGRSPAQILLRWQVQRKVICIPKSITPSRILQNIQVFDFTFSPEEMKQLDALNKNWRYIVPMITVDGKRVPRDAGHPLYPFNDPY
Put plainly: Inhibitory activity was measured against whole kidney aldehyde reductase.

Assay [3] addresses T1, Aldo-keto reductase family 1 member A1. Put plainly: Inhibitory activity was measured against renal cortex aldehyde reductase.
Assay [4] shares this target. Put plainly: Inhibitory activity was measured against renal outer medulla aldehyde reductase.
The target of assay [5] is T2, Aldo-keto reductase family 1 member B1 (Rattus norvegicus, UniProt P07943). Kind of assay: Inhibitory activity measured against rat lens aldose reductase using 3-pyridinecarboxaldehyde as substrate.
For assay [6], the target named is T2, Aldo-keto reductase family 1 member B1. Kind of assay: Percent inhibition of sorbitol accumulation in rat lens was measured. The class given is tissue-based, Lens of camera-type eye.
Assay [7] in a line: Selectivity ratio measured as the IC50 ratio of aldehyde/aldose reductase values. An outline of the steps: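 Ratio of the pig kidney aldehyde reductase IC50 to the rat lens aldose reductase IC50. Both purified enzymes were assayed in 50 mM potassium phosphate pH 7.0 with 0.1 mM NADPH and 5 mM 3-pyridinecarboxaldehyde, started with substrate, reading NADPH loss at 340 nm for 12 min at 25 °C. IC50s came from log-linear regression.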

We go through two compounds from ChEMBL document CHEMBL1125615, “A highly specific aldose reductase inhibitor, ethyl 1-benzyl-3-hydroxy-2(5H)-oxopyrrole-4-carboxylate, and its congeners” (J Med Chem, 1991).

Some results are limits rather than exact numbers.

For `CCOC(=O)C1=C(O)C(=O)N(Cc2ccccc2)C1`, the IC50 in assay [1] stood at 28 nM; in assay [2], 14 µM; in assay [3] it was 480 µM; in assay [4] it was 210 µM; in assay [5], 47 nM; in assay [6], 47 nM. Further, the Selectivity ratio in assay [7] was above 4000.

`O=C1NC(=O)[C@@]2(CCOc3ccc(F)cc32)N1` [SORBINIL]: the IC50 in assay [5] amounted to 280 nM.

What is called IC50 is the concentration at which inhibition is half-maximal. High values mean weaker potency, low ones greater potency.
